Measurements from patent US10961231B2, “NTCP inhibitors” (National Institute of Biological Sciences, Beijing, priority 2018, dated 2021).

Amino acid sequences for entries named in this document (tags omitted).
UniProt Q14973, whole entry: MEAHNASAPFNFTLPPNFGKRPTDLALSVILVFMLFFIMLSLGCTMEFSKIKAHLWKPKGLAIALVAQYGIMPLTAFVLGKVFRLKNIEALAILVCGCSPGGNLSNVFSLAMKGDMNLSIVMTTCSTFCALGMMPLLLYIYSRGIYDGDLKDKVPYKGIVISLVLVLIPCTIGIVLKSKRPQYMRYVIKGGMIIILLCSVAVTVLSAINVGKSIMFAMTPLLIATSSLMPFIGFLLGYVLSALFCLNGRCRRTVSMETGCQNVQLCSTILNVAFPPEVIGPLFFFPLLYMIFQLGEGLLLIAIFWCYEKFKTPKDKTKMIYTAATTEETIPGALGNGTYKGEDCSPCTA

Each compound was assayed against NTCP (Homo sapiens, UniProt Q14973) (assay: [3H]-TCA uptake assay (NTCP inhibition)). Conditions: given as a range; assay not given.
Format: cell-based
Protocol: [^3H]-TCA uptake assay. PTH and HepG2-NTCP cells were cultured in PMM for 24 hours to induce NTCP expression. After treated by DMSO or test compounds for 2 hours, the cells were then incubated with 1 μM [^3H]-taurocholate acid dissolved in Na^+ Ringer's buffer (the concentration of Na was 145 mM) for 15 minutes at 37° C. Subsequently, the cells were washed once in phosphate-buffered saline (PBS) and lysed in 50 μL 1% TritonX-100 in H2O for 5 minutes at room temperature. The lysate were totally transferred into a liquid scintillation 96 well plate and mixed with 200 μL liquid scintillation cocktail (Ultima Gold XR, PerkinElmer). Liquid scintillation counting was performed on a PerkinElmer 1450 LSC liquid scintillation counter.
CC[C@@H]1NC(=O)[C@H]([C@@H]2OC(OCc3cc(Cl)ccc3Cl)C[C@H]2C)N(C)C(=O)[C@H](C(C)C)N(C)C(=O)[C@H](CC(C)C)N(C)C(=O)[C@H](CC(C)C)N(C)C(=O)[C@@H](C)NC(=O)[C@H](C)NC(=O)[C@H](CC(C)C)N(C)C(=O)[C@H](C(C)C)NC(=O)[C@H](CC(C)C)N(C)C(=O)CN(C)C1=O (single isomer, unassigned) gave an IC50 of 1 to 1000 nM.
In the case of CC[C@@H]1NC(=O)[C@H]([C@@H]2OC(OCc3ccc(Cl)c(Cl)c3)C[C@H]2C)N(C)C(=O)[C@H](C(C)C)N(C)C(=O)[C@H](CC(C)C)N(C)C(=O)[C@H](CC(C)C)N(C)C(=O)[C@@H](C)NC(=O)[C@H](C)NC(=O)[C@H](CC(C)C)N(C)C(=O)[C@H](C(C)C)NC(=O)[C@H](CC(C)C)N(C)C(=O)CN(C)C1=O (single isomer, unassigned), the IC50 is reported as 1 to 1000 nM.
Work on CC[C@@H]1NC(=O)[C@H]([C@@H]2OC(O[C@H](C)c3cc(Cl)cc(Cl)c3)C[C@H]2C)N(C)C(=O)[C@H](C(C)C)N(C)C(=O)[C@H](CC(C)C)N(C)C(=O)[C@H](CC(C)C)N(C)C(=O)[C@@H](C)NC(=O)[C@H](C)NC(=O)[C@H](CC(C)C)N(C)C(=O)[C@H](C(C)C)NC(=O)[C@H](CC(C)C)N(C)C(=O)CN(C)C1=O (single isomer, unassigned) yielded an IC50 of 1 to 1000 nM.
